Sequences of proteins named here, by UniProt entry; tags and fusion partners are left off. Residues count along the entry.
UniProt A0A287B941, 1-1069: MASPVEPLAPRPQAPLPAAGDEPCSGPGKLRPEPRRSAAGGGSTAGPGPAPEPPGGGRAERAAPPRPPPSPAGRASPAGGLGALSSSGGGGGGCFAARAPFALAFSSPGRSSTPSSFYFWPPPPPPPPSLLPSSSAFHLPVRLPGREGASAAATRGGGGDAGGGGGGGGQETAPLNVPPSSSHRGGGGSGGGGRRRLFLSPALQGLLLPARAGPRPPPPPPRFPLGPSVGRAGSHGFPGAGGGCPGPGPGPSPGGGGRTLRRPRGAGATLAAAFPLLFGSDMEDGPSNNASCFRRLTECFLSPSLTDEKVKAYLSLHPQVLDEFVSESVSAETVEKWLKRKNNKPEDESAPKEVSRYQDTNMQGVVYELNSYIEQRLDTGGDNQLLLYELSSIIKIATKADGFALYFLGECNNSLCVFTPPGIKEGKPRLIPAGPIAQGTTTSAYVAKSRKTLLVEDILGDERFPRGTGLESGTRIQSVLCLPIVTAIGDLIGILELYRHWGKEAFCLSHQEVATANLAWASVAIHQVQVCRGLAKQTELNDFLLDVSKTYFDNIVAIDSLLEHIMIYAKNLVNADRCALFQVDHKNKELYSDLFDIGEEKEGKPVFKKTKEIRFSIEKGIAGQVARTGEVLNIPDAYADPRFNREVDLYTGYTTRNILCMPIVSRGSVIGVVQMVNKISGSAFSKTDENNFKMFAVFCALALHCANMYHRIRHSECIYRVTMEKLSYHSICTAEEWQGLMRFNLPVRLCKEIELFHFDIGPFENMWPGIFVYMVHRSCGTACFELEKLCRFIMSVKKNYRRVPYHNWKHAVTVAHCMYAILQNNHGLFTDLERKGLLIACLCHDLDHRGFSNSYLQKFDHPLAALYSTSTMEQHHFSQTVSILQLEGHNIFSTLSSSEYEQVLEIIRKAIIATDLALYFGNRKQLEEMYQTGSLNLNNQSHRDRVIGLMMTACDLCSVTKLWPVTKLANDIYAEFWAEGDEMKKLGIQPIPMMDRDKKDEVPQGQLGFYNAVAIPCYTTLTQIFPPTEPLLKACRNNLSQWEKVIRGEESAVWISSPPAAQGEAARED

According to US7550465B2, “Pyrido[3,2-e]pyrazines, their use as inhibitors of phosphodiesterase 10, and processes for preparing them” (Elbion GmbH, priority 2006, dated 2009):

Target: PDE10 from pig striatum (Sus scrofa, UniProt A0A287B941)
Assay: Inhibition of PDE10 from pig striatum ([3H]-cAMP SPA)
Assay type: biochemical
Conditions: read-out: Inhibition of PDE10 from pig IC50; pig striatum preparation; 0.1 μM [3H]-cAMP; 37° C., 30 minutes

IC50: 0.023 µM
Compound: CCCc1nc(C)c2c[n+]([O-])c3ccc(OC)nc3n12
